From PMC6222444, “Structural Basis for the Interaction between p53 Transactivation Domain and the Mediator Subunit MED25” (Molecules : A Journal of Synthetic Chemistry and Natural …, 2018)

Assays:
MED25 ACID [1] = target: T1, MED25 ACID (Homo sapiens, UniProt Q71SY5); assay: NMR titration of 15N-labeled MED25 ACID with p53TAD and p53TAD1/p53TAD2 peptides (chemical shift perturbation); type: binding; settings: molar ratio 1:1
T1 construct: Expression of the His6-fused MED25 ACID (residues 394–543) was induced at 18 °C; His6 (C); made in house; host or cells: Escherichia coli BL21(DE3)RIL
T1 sequence (Q71SY5 394-543): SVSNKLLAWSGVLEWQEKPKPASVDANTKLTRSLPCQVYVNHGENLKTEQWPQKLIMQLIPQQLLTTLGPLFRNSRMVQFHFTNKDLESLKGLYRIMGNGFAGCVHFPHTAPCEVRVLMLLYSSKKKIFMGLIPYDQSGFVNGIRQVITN
Source text: The human p53TAD (residues 1–73) and human MED25 ACID (residues 394–543) were cloned into the pGEX-4T vector (GE-healthcare, Chicago, IL, USA) containing an N-terminal glutathione-S-transferase (GST) tag and pET-21b vector (Novagen, Madison, WI, USA) containing a C-terminal His6 tag, respectively. The p53TAD1 (residues 15–29) and the wild-type and mutant p53TAD2 (residues 39–57) peptides were chemically synthesized and purified by Peptron Inc. (Daejeon, Korea).
The expression vectors were transformed into the Escherichia coli BL21(DE3)RIL cells. Cells were grown to an optical density at 600 nm (OD600) of ~0.6 at 37 °C, and expression of the GST-fused p53TAD (residues 1–73) was induced at 18 °C with 0.5 mM isopropyl-β-D-thiogalactopyranoside (IPTG) for 16 h. Harvested cells were suspended in phosphate-buffer saline (PBS) (10 mM Na2HPO4, 140 mM NaCl, and 1.8 mM KH2PO4, pH 7.5) and lysed by sonication. After cell debris was removed by centrifugation, the supernatant was loaded onto a GST column (GE healthcare). After washing with PBS, the protein was eluted by elution buffer (50 mM Tris-HCl, pH 8.0, and 15 mM glutathione) prepared freshly. After cleaved with thrombin and dialyzed against Q-buffer (20 mM sodium phosphate, pH 6.4, 50 mM NaCl, and 2 mM dithiothreitol (DTT)), the protein was loaded onto a HiTrap-Q HP column (GE-Healthcare) and eluted by a 50–1000 mM linear gradient of NaCl. […] The purity and homogeneity of the proteins were assessed using sodium dodecyl sulfate-polyacrylamide gel electrophoresis (SDS-PAGE). […]
All the NMR data were acquired using Bruker Avance II 800 and 900 spectrometers (Bruker, Billerica, MA, USA) equipped with a cryogenic probe at the Korea Basic Science Institute. […] The weighted ΔCS values for backbone ^1H and ^15N resonances were calculated by this equation: ΔCS = (Δ^1H^2 + (0.2 × Δ^15N)^2)^0.5. All NMR data were processed and analyzed using nmrPipe/nmrDraw and SPARKY 3 software (version 3, University of California, San Francisco, CA, USA, http://www.cgl.ucsf.edu/home/sparky/).

MED25 ACID [2] = target: T1, MED25 ACID; assay: Isothermal titration calorimetry (ITC) binding to MED25 ACID; settings: Auto-iTC200, 25 mM sodium phosphate, 100 mM NaCl, pH 7.0, 25 °C, full-length p53TAD: 600 µM MED25 ACID titrated into 20 µM p53TAD, peptides: 600 µM peptide titrated into 20 µM MED25 ACID, eighteen injections of 10 µL, one-site binding

With “p53TAD1 peptide: p53TAD1 (residues 15–29) chemically synthesized peptide” the “effect on 15N-labeled MED25 ACID crosspeaks (line broadening, chemical shift changes)” value (MED25 ACID [1]; 2D 1H-15N HSQC, 20 mM sodium phosphate, pH 6.5, 100 mM NaCl, 1 mM EDTA, 4 mM DTT, 10% D2O, 25 °C) was “caused the crosspeaks of MED25 ACID to significantly move”, the “binding site/surface on MED25 ACID” value (MED25 ACID [1]; CSP mapping, ΔCS > 0.05 ppm and disappeared residues, pH 6.5, 25 °C) was “located on a hydrophobic groove in one face of MED25 ACID structure composed of β-strands (β4 and β7) and α1-helix” and the “rank order of degree of CSPs on MED25 ACID” value (MED25 ACID [1]; weighted ΔCS, pH 6.5, 25 °C) was “full-length p53TAD > p53TAD2 > p53TAD1”. For the same substance, the “equilibrium dissociation constant (Kd) with MED25 ACID” value (MED25 ACID [2]) was “could not be determined by ITC”.
